Experimental data published in patent publication US20190231751A1, “TREATMENT OF FIBROTIC DISORDERS WITH JUN N-TERMINAL KINASE INHIBITORS” (Imago Pharmaceuticals, Inc., priority 2016, published 2019).
pIC50: −log10 of the molar value.

Protein sequences, listed by entry. Tags and fused reporters are not part of them.
UniProt P53779, whole entry, species assumed: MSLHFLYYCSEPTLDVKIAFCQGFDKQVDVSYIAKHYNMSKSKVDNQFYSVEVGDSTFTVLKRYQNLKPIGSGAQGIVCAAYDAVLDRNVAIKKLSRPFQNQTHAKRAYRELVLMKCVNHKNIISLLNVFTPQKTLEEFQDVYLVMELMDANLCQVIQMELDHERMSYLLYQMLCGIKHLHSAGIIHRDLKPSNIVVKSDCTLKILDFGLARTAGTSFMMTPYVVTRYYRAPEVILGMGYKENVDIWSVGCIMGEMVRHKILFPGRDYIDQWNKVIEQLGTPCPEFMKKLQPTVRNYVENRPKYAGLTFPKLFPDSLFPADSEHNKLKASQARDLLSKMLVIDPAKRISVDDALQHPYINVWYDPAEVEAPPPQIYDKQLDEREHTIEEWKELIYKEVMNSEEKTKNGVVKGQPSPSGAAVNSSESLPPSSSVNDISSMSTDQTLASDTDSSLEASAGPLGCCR
UniProt P45983, whole entry, species assumed: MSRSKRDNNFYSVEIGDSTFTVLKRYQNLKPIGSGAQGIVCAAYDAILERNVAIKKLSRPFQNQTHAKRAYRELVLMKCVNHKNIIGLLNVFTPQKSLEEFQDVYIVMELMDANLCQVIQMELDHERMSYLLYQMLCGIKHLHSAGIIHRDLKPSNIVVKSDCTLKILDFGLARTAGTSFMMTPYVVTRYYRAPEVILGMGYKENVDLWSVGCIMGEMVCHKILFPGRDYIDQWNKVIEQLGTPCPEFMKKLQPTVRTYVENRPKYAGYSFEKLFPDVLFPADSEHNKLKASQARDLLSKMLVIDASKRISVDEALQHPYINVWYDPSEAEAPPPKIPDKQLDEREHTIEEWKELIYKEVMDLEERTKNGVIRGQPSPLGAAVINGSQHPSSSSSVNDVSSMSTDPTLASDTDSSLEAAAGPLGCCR

Columns and labels:
[1] = molecular target: JNK3 (Homo sapiens, UniProt P53779); test: In vitro JNK3 inhibition (Table 1); type: biochemical
Description: (§1) In vitro assays for the determination of JNK activities are known in the art and exemplary assay formats are described herein.
(§2) IC50 values in Table 1 were determined using the procedures as described in U.S. Pat. No. 8,450,353.

[2] = molecular target: JNK1 (Homo sapiens, UniProt P45983); test: In vitro JNK1 inhibition (Table 1); type: biochemical
Description: as §1, §2

Row | SMILES | pIC50 [1] | pIC50 [2]
1 | COc1ccc(CC(=O)Nc2sccc2-c2nn[nH]n2)cc1 [N-(3-(2H-tetrazol-5-yl)thiophen-2-yl)-2-(4-methoxyphenyl)-acetamide] | 5.00 to 7.00 | 5.00 to 7.00
2 | COc1ccc(CC(=O)Nc2ccsc2-c2nc(C)n[nH]2)cc1 [2-(4-methoxyphenyl)-N-(2-(3-methyl-1H-1,2,4-triazol-5-yl)thiophen-3-yl)acetamide] | 5.00 to 7.00 | 5.00 to 7.00
3 | O=C(Cc1ccc2c(c1)OCCO2)Nc1ccsc1-c1ncn[nH]1 [N-(2-(1H-1,2,4-triazol-5-yl)thiophen-3-yl)-2-(2,3-dihydrobenzo[b][1,4]dioxin-6-yl)acetamide] | 5.00 to 7.00 | 5.00 to 7.00
4 | Cc1cc(-c2sccc2NC(=O)Cc2cccc3ccccc23)n[nH]1 [N-(2-(5-methyl-1H-pyrazol-3-yl)thiophen-3-yl)-2-(naphthalen-1-yl)acetamide] | 5.00 to 7.00 | 5.00 to 7.00
5 | COc1ccc(CC(=O)Nc2ccsc2-c2ncco2)cc1 [2-(4-methoxyphenyl)-N-(2-(oxazol-2-yl)thiophen-3-yl)acetamide] | 5.00 to 7.00 | 5.00 to 7.00
6 | Cn1ncnc1-c1ncsc1NC(=O)Cc1cccc2cnccc12 [2-(isoquinolin-5-yl)-N-(4-(1-methyl-1H-1,2,4-triazol-5-yl)thiazol-5-yl)acetamide] | 5.00 to 7.00 | 5.00 to 7.00
7 | O=C(Cc1cccc2ccccc12)Nc1ccsc1-c1cc[nH]n1 [N-(2-(1H-pyrazol-3-yl)thiophen-3-yl)-2-(naphthalen-1-yl)acetamide] | 5.00 to 7.00 | 
8 | Cc1noc(-c2sccc2NC(=O)Cc2cccc3ccccc23)n1 [N-(2-(3-methyl-1,2,4-oxadiazol-5-yl)thiophen-3-yl)-2-(naphthalen-1-yl)acetamide] | 5.00 to 7.00 | 5.00 to 7.00
